Usually Kd stands for the free concentration of one partner at which half of the binding sites on the other are occupied at equilibrium, for simple one-to-one binding. In general, EC50 refers to the concentration needed to bring the measured effect to its halfway point.

Chains of the proteins cited; added tags and fusions are not shown. Residues count along the entry.
UniProt P01375, 77-233: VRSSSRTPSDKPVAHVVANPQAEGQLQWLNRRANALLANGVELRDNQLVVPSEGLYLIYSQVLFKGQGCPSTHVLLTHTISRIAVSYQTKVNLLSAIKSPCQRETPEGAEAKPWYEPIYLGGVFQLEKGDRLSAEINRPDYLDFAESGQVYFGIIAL

Kd and EC50 data for one molecule are collected here from patent US20130058943A1 (published 2013).

In assay [1] the target is T1, recombinant human TNF (human, UniProt P01375 77-233).
T1 construct: Bought (Cell Sciences); also called rhTNF; hTNF
Description: competition ELISA: antibody preincubated with soluble TNF, then on TNF-coated plates. In general terms: ELISA stands for enzyme-linked immunosorbent assay.

The target of assay [2] is T1, recombinant human TNF. Description: table head: EC50 in TNF ELISA; the text that introduces the table speaks of the L929 neutralization assay.

B1: infliximab (antibody, V domains shown)
VH: EVKLEESGGGLVQPGGSMKLSCVASGFIFSNHWMNWVRQSPEKGLEWVAEIRSKSINSATHYAESVKGRFTISRDDSKSAVYLQMTDLRTEDTGVYYCSRNYYGSTYDYWGQGTTLTVSS
VL: DILLTQSPAILSVSPGERVSFSCRASQFVGSSIHWYQQRTNGSPRLLIKYASESMSGIPSRFSGSGSGTDFTLSINTVESEDIADYYCQQSHSWPFTFGSGTNLEVKR
As to B1, the Kd in assay [1] came to 0.2 nM. Further, the EC50 in assay [2] came out at 0.076 µg/mL.
